Assay outcomes: PubChem, National Center for Advancing Translational Sciences (NCATS)
This is a sample that favours compounds with a hit; in the whole collection about 2.9% have one here.
Mm-Cpn inhibitor: blocks the Methanococcus maripaludis chaperonin Mm-Cpn; purified Mm-Cpn ATPase, ADP Transcreener TR-FRET; 330,000 compounds, 0.031% hits; Potency, µM (titrated, usually from 76.9 µM), for inactives: at the top dose activity, negative = inhibition, usual class: inhibitors; active = well fitted inhibition curve with a large enough effect; inconclusive = small, poorly fitted or top-dose-only effect; note: potency is the fitted concentration of half-maximal effect; % is set by controls: 0 for no effect and ±100 for the full control effect; nearly all actives have a fitted effect of over 80% in size
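ATPase turnover read by TR-FRET ADP competition (Eu cryptate antibody/ADP-d2, 665/590 nm): 10uM ATP final, 25nM Mm-CPN final, 30 min 37degC after 10-min compound preincubation, pH 7.4 Tris/KCl/MgCl2/DTT buffer.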
TSG101-PTAP inh: blocks PTAP/TSG101 interaction to inhibit HIV-1 budding | 340,000 tested, under 10 active | Potency, µM (titrated, usually from 115 µM), inactives show at the highest dose activity change, negative = inhibition, most hits filed as inhibitors | Fluorescence polarization, FITC-PTAP peptide / Tsg101 binding | Q99816; active = well fitted inhibition curve with a large enough effect in the main read-out, with a control signal flat, not every such curve was filed as active; inconclusive = small, poorly fitted or top-dose-only effect, or effect the other way, or a change in a side signal; inactive = no such curve, though single readings can be large or run the other way; note: potency is the fitted concentration of half-maximal effect; % of control where 0% means no effect
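Steps: Tsg101 binding domain dispensed (10 uM final), compounds pinned in DMSO, FITC-labeled PTAP-motif peptide added (50 nM final); after 20 min binding at room temperature, polarization measured.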
Rango release inh: inhibitors of RanGTP-induced Rango-importin beta complex dissociation. O95149+P62826. Biochemical FRET Rango-importin beta, RanGTP-induced dissociation. Potency, µM (titrated, usually from 46.1 µM), inactives show at the top dose activity change, negative = inhibition. 340,000 compounds, 0.071% hits; note: potency is the fitted concentration of half-maximal effect; % of control where 0% means no effect; nearly all actives have a fitted effect of over 45% in size
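Compounds sat 5 min at room temperature with 0.1 uM Rango biosensor plus 0.25 uM importin beta, then FRET pre-read. RanGTP-RCC1 (0.6 uM Ran, 2mM GTP, 0.2 uM RCC1) added for 45 min, and the CFP/YFP post-read measured blocked complex dissociation.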
Rango-impB inh: Rango-importin beta binding inhibition. Rango CFP/YFP FRET sensor + importin beta, 45 min. 340,000 compounds, 0.031% hits. Potency, µM (series often up to 92.2 µM), without a hit: top-dose inhibition of complex formation. Q14974;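 note: potency is the fitted concentration of half-maximal effect; 0% = DMSO wells and 100% = buffer wells lacking importin beta; nearly all actives have a fitted effect of over 15% in size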
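FRET biosensor (snurportin 1 IBB flanked by EYFP and cerulean), 50 nM, with compound 5 min, then 0.125 microM importin beta in PBS, 1 mM DTT, 0.02% Tween-20, 0.1% BSA. CFP/YFP ratio read after 45 min at room temperature; pre-read flags interference.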
DRD3 agonist: agonists of human D3 dopamine receptor; P35462; D3R DiscoveRx beta-arrestin cells, luminescence, 90 min; max activation, %; 410,000 compounds, 0.58% hits; AID 652048; in the data active = max activation above about 30%; note: 0% is about no effect
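Agonist mode: compounds and dopamine controls were applied to plated cells for 90 min at 37 degrees C after an overnight attachment at 1500 cells/well. Luminescent read-out followed 30 - 60 minutes at room temperature with DiscoveRx detection reagent.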
D3 antag: blocks the human D3 dopamine receptor; D3R cells, DiscoveRx beta-arrestin luminescence, antagonist mode; stronger effect = lower value; max response, negative = inhibition, %; 360,000 compounds, 2.5% hits; P35462; in the data active = max response below about -50%; inconclusive = no clear call, values can overlap the other calls; note: % is set by controls: 0 for no effect and ±100 for the full control effect
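Cells expressing the human receptor were seeded at 1500 cells/well, incubated overnight at 37 degrees C in 5% CO2, then exposed to library compounds with dopamine controls for 90 minutes at 37 degrees C before luminescent detection.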
Active calls of the source: *; u = inconclusive; x = not tested or not shown. Unless noted, calls come from the whole dose curve.

no.	SMILES	Mm-Cpn inhibitor	TSG101-PTAP inh	Rango release inh	Rango-impB inh	DRD3 agonist	D3 antag
1	c1ccc(Cn2c(CNc3nc4ccccc4n3CCN3CCOCC3)nc3ccccc32)cc1	-3%	-4%	3%	-1%	-13	-54*
2	O=C(Nc1nc2ccccc2n1CCN1CCCC1)c1ccc(Cl)cc1	-1%	-4%	0%	0%	-27	-7
3	O=C(Nc1nc2ccccc2n1CCN1CCCCC1)c1ccc(Cl)cc1	-2%	x	x	x	x	x
4	CCn1nccc1C(=O)Nc1nc2ccccc2n1CCN1CCCCC1	-2%	-2%	u	u	-6	-87*
5	Cc1ccc(C(=O)Nc2nc3ccccc3n2CCN2CCCC2)cc1	0%	-4%	-5%	-4%	-25	-61*
6	COc1cccc(CNc2nc3ccccc3n2CCN2CCCCC2)c1OC	1%	-8%	24%	u	-15	-67*
7	Cc1cccc(N2CCN(CCCNC(=O)c3sc4ncccc4c3-n3cccc3)CC2C)c1 (stereo unspecified)	x	x	x	x	3	x
8	CCC(C(=O)Nc1cc(-c2cn3cccnc3n2)ccc1C)c1ccccc1 (stereo unspecified)	x	x	x	x	5	x

Grouped by structure, the entries above containing a Cl atom
no.	SMILES	Mm-Cpn inhibitor	TSG101-PTAP inh	Rango release inh	Rango-impB inh	DRD3 agonist	D3 antag
2	O=C(Nc1nc2ccccc2n1CCN1CCCC1)c1ccc(Cl)cc1	-1%	-4%	0%	0%	-27	-7
3	O=C(Nc1nc2ccccc2n1CCN1CCCCC1)c1ccc(Cl)cc1	-2%	x	x	x	x	x

Back to the main list, repeating the 2 entries before the break.
no.	SMILES	Mm-Cpn inhibitor	TSG101-PTAP inh	Rango release inh	Rango-impB inh	DRD3 agonist	D3 antag
7	Cc1cccc(N2CCN(CCCNC(=O)c3sc4ncccc4c3-n3cccc3)CC2C)c1 (stereo unspecified)	x	x	x	x	3	x
8	CCC(C(=O)Nc1cc(-c2cn3cccnc3n2)ccc1C)c1ccccc1 (stereo unspecified)	x	x	x	x	5	x
9	O=C(Cn1c(=O)c(=O)n(Cc2ccccc2)c2ccc(Cl)cc21)NCC1CCCO1 (stereo unspecified)	-1%	1%	-3%	-3%	5	-11
10	CCn1c(NC(=O)C2CCCCC2)nc2ccccc21	-1%	-2%	2%	5%	-3	0
11	CCC(=O)Nc1nc2ccccc2n1CCN1CCOCC1	-6%	2%	14%	1%	-2	17
12	O=C(Nc1nc2ccccc2n1CCN1CCCC1)C1CCCCC1	0%	-12%	-1%	u	1	-82*
13	O=C(Nc1nc2ccccc2n1CCN1CCCCC1)C1CCCCC1	-3%	-3%	-9%	1%	-15	-62*
14	Cc1nn(C(C)(C)C)c(OC(=O)c2cccs2)c1Sc1ccccc1	2%	-1%	-11%	4%	-4	-53*
15	Oc1ccc(COC2CCCC2)c2cccnc12	-1%	x	x	x	x	x
16	Cc1cccc(OCc2ccc(-c3nc(C#N)c(NCc4cccnc4)o3)o2)c1	x	x	x	x	-2	x

New compounds follow
no.	SMILES	Mm-Cpn inhibitor	TSG101-PTAP inh	Rango release inh	Rango-impB inh	DRD3 agonist	D3 antag
17	Cc1cc(C)nc(SCC(=O)N2CCOCC2)n1	-4%	3%	2%	-3%	15	-54*
18	COc1ccc2c(C)cc(SCC(=O)N3CCOCC3)nc2c1	-4%	8%	-8%	33µM*	-6	-19
19	Cc1cc(C)nc(SCCC(=O)N2CCOCC2)n1	0%	0%	1%	0%	1	2
20	Cc1c(NC(=O)Nc2ccc(Cl)c(Cl)c2)sc(=S)n1C	x	2%	0%	0%	-26	-73*
21	CC[C@@H](C)[C@H](NC(=O)OC(C)(C)C)c1nnc(S(=O)(=O)Cc2cc(C)ccc2C)o1	0%	-7%	-5%	-3%	-8	-79*
22	Cc1ccccc1CS(=O)(=O)c1nnc([C@H](CC(C)C)NC(=O)OC(C)(C)C)o1	1%	0%	-2%	5%	-59	-66*
23	CC(C)(C)OC(=O)N[C@@H](Cc1ccccc1)c1nnc(S(=O)(=O)Cc2cccc(F)c2)o1	2%	-1%	-5%	-3%	-22	-4
24	COc1ccc(-c2nnc(Nc3nc4c(OC)cccc4s3)o2)c(OC)c1	-22%	-8%	-13%	2%	-4	-68*
25	Cc1cc(C)c2oc(C(=O)Nc3ccc(S(=O)(=O)N4CCCCC4)cc3)cc(=O)c2c1	x	x	x	x	7	x
26	C=CCN(CC=C)CC(O)CN(c1cc([N+](=O)[O-])ccc1OC)S(=O)(=O)c1ccccc1 (stereo unspecified)	2%	0%	-6%	1%	-41	-84*
27	COc1ccc([N+](=O)[O-])cc1N(CC(O)CN(C)C)S(=O)(=O)c1ccccc1 (stereo unspecified)	-1%	-2%	-13%	-4%	0	5
